## Yeast mating assay B: variants of the scFv Ab-14

Target peptide (SARS-CoV-2 spike, HR2 region): PDVDLGDISGINAS

The variants keep the heavy chain, the linker and the frameworks of Ab-14 (scFv order VH, a (GGGGS)3 linker, VL).
VH: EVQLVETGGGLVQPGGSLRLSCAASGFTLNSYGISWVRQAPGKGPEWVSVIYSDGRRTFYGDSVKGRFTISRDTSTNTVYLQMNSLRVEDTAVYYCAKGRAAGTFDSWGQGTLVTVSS
VL: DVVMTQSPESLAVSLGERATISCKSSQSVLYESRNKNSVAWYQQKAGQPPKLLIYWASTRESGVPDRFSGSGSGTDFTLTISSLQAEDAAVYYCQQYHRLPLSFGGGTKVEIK

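Phage display of a naive human antibody library on the peptide gave the parent. Designed CDR sequences, proposed from the first random library and measured here. Several design methods are mixed in this list. The scFvs were displayed on barcoded MATa yeast, the peptide on MATalpha yeast. After mating in shaken culture at 30 °C for 16 h, diploids were selected and their barcode pairs sequenced. Each replicate has its own calibration line, from reference interactions of the BCL2 family. There are six technical replicates.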

Variants are written as CDR1, CDR2 and CDR3 of the light chain (limits as in the source). Parent: KSSQSVLYESRNKNSVA, WASTRES, QQYHRLPLS.
This list holds designs with more than six substitutions.
Values are apparent Kd, the geometric mean of the replicates that gave a signal; lower means stronger binding.
A pair that was not seen in any replicate is written "nd"; this usually means weak binding, but a binder can also be missed.
The parent sequence was in this pool as ten entries: three were never detected, three once, and four in most replicates, with averages from 2.2 nM to 240 nM.
The authors averaged sequences with at least three values out of six and counted those with two or fewer as poor binders.
The range of this assay differs from that of the first round, and the authors advise against merging the two.
Three control strains display no target. For all light chain designs, 4% of the pairings with them gave a signal, with a median of 430 nM and one signal in twenty below 38 nM, so weak values seen in few replicates may be background. The control count says in how many pairings with the empty strains this scFv gave a signal.

Variant KLSGSMLYESRNKNNVA | EAHQRES | QMYHRLPLS gave 5.1 nM (6 of 6 replicates; controls 2 of 18).
Variant IISDVDAYESRNKNSIA | DQSTRGS | QQYDRLPLS gave 5.1 nM (6 of 6 replicates; controls 6 of 18).
Variant KCQILVEQESRQKNSVA | NASKRES | QQYHRLPLS gave nd (0 of 6 replicates; controls 0 of 18).
Variant MLSQMTGLGQKVRNSVA | QASMRFN | QQYHRLPLM gave 220 nM (6 of 6 replicates; controls 0 of 18).
Variant IISQVDAYMSRNKNSIA | DQSTRGS | QQYDRLPLS gave 9.0 nM (6 of 6 replicates; controls 0 of 18).
Variant QFDQFYRVGALNTDSIA | HAEMRVQ | QSYNRLPLM gave 8.5 nM (6 of 6 replicates; controls 4 of 18).
Variant NITGMVEEIGTTMKNIA | EGEFRCM | QQYSRLPLS gave 35 nM (5 of 6 replicates; controls 0 of 18).
Variant WLSMSVMLESRNVNSVA | SASTREE | QQYHRLPLS gave 20 nM (6 of 6 replicates; controls 0 of 18).
Variant KLSSSWLMEQRNVNSVA | QASTRLL | QQYHRLPLS gave 2.2 nM (6 of 6 replicates; controls 0 of 18).
Variant KISQMSTIESIQHNSVA | QTSTREK | QQYDRLPLS gave 6.5 nM (6 of 6 replicates; controls 4 of 18).
Variant NLGFVDDNDNRGMMNVA | DVNTVGE | QQYNRLPLA gave 10 nM (6 of 6 replicates; controls 0 of 18).
Variant IVSQLMIWGMHVKNSIA | EAQTRLN | QQYDRLPLI gave nd (0 of 6 replicates; controls 0 of 18).
Variant HISMSMNYLSRNKNSIA | EESTRED | QQYHRLPLS gave 690 pM (6 of 6 replicates; controls 0 of 18).
Variant KSSQQVLYEDKQVNSVA | NASQRMS | QQYHRLPLS gave 7.4 nM (6 of 6 replicates; controls 1 of 18).
Variant HLSQSSDLESVHKNSIA | DLMTRES | QQYHRLPLS gave 740 pM (6 of 6 replicates; controls 0 of 18).
Variant KLREVIHVESKQKNNVA | DNSTRED | QDYHRLPLS gave 22 nM (6 of 6 replicates; controls 0 of 18).
Variant KFEQLWMYEQRNKNSVA | NASQRED | QQYHRLPLS gave 170 pM (6 of 6 replicates; controls 0 of 18).
Variant MLSQVTHSESRNKNSIA | EMVTREV | QQYDRLPLS gave 14 nM (6 of 6 replicates; controls 0 of 18).
Variant TISQSVNMTSKGKNSVA | QAEMRES | QQYDRLPLS gave nd (0 of 6 replicates; controls 0 of 18).
Variant KIMQSLNYESFNVSSVA | GQETRER | QSYHRLPLS gave 300 nM (4 of 6 replicates; controls 0 of 18).
Variant KISFQYRYEQLSKNSIA | EAQTRLK | QQYHRLPLS gave 5.3 nM (6 of 6 replicates; controls 1 of 18).
Variant MMTMGSLGGMRARNNVA | QEETREK | QQYHRLPLI gave 18 nM (6 of 6 replicates; controls 0 of 18).
Variant KSSVSVLYESTNKNSVA | CASTPES | EQCHRLPWF gave 170 nM (1 of 6 replicates; controls 0 of 18).
Variant KLSLFYRVETRQKNSVA | DNSTRES | QDYDRLPLS gave 460 nM (6 of 6 replicates; controls 0 of 18).
Variant DLTGMFNMAGQQQHSIA | NGGIKIE | QQYNRLPLA gave 1.0 nM (6 of 6 replicates; controls 1 of 18).
Variant LIKGMVDGQYYWQNNIA | NSEERDR | QQYNHLPLS gave 3.4 nM (6 of 6 replicates; controls 0 of 18).
Variant TIAQAMDHLQRNKNNVA | DTNCRED | QDYNRLPLS gave 500 pM (6 of 6 replicates; controls 0 of 18).
Variant KEPQSHDYESRNMNSVA | NASERES | QQYHRLPLS gave 620 pM (6 of 6 replicates; controls 0 of 18).
Variant QMQLSQREGNQHQNSIA | GESEADM | QHYARLPLT gave 100 nM (1 of 6 replicates; controls 0 of 18).
Variant KLLEAVLGESYNKNSVA | HNSTRED | QEYARLPLS gave 60 nM (6 of 6 replicates; controls 0 of 18).
Variant KVGQMTALESRNLNSVA | QMDTRES | QQYHRLPLS gave 1.1 nM (6 of 6 replicates; controls 1 of 18).
Variant KLSMSVEMMQRNPNSVA | SASTRLS | QQYHRLPLS gave 400 pM (6 of 6 replicates; controls 0 of 18).
Variant KLAMYLEMNARTNHAIA | EANLKPS | QQYNRLPFS gave 840 pM (6 of 6 replicates; controls 0 of 18).
Variant MIYGADRNLGRAKNSIA | DNVTRYN | QQYERLPLS gave 220 nM (3 of 6 replicates; controls 1 of 18).
Variant ALGTSTLEESRNKNSVA | EMSLREA | QSYNRLPLS gave 5.2 nM (6 of 6 replicates; controls 1 of 18).
Variant TISESTYWESFNKNSVA | QTSTREE | QDYDRLPLS gave 310 nM (2 of 6 replicates; controls 0 of 18).
Variant KLQFSMLYESRNVNSVA | DASKRES | QAYHRLPLS gave 1.9 nM (6 of 6 replicates; controls 1 of 18).
Variant KLQMSAEYQSRNKNSVA | SASTREA | QQYHRLPLS gave 180 pM (6 of 6 replicates; controls 0 of 18).
Variant NLQYLEENSLIGASAIA | DVNIAVM | QQYSRLPLA gave 130 nM (3 of 6 replicates; controls 0 of 18).
Variant KIDSQYQHGTNQKKAMA | DSSVSTQ | QQYSRLPLS gave 1.8 nM (6 of 6 replicates; controls 1 of 18).
Variant QLTQVQQEDTPGEYNVA | HAEVSGR | QQYSQLPLI gave 38 nM (1 of 6 replicates; controls 0 of 18).
Variant KVSQMEPYEERNKNNVA | NASTRMS | QQYHRLPLS gave 480 pM (6 of 6 replicates; controls 2 of 18).
Variant HMSALTLQGMRHRNSVA | QMTTREN | QQYDHLPLS gave 25 nM (6 of 6 replicates; controls 0 of 18).
Variant KLYDMAALTMNNIRNVA | DNDTRVS | QQYHRLPLS gave 16 nM (6 of 6 replicates; controls 0 of 18).
Variant MIYGAAMELGRAANSIA | DNVTKYD | QQYERLPLS gave 3.5 µM (3 of 6 replicates; controls 1 of 18).
Variant KLNQDPVLKTNINNSVA | EHSEVFQ | QQYAHLPLQ gave 330 nM (3 of 6 replicates; controls 1 of 18).
Variant TISGVMQQMSHNKSNVA | EVSMRLD | QQYFRLPLE gave 92 nM (4 of 6 replicates; controls 0 of 18).
Variant MISQVMNTLTRNGNNVA | DLENRED | QQYFRLPLS gave nd (0 of 6 replicates; controls 0 of 18).
Variant TLYGLSLSMSKNKNSVA | EMTTRED | QQYDRLPLI gave 2.3 nM (1 of 6 replicates; controls 0 of 18).
Variant KVEPSVQLEMRNKNSVA | SASTRES | QQYHRLPLS gave 3.7 nM (6 of 6 replicates; controls 0 of 18).
Variant MISDLTMQGSLNKNSVA | DLSTRGS | QQYHRLPLS gave 880 pM (6 of 6 replicates; controls 1 of 18).

The opening 8 entries, copied out:

CDR-L1	CDR-L2	CDR-L3	Kd (apparent)	replicates with signal	empty controls
KLSGSMLYESRNKNNVA	EAHQRES	QMYHRLPLS	5.1 nM	6/6	2/18
IISDVDAYESRNKNSIA	DQSTRGS	QQYDRLPLS	5.1 nM	6/6	6/18
KCQILVEQESRQKNSVA	NASKRES	QQYHRLPLS	nd	0/6	0/18
MLSQMTGLGQKVRNSVA	QASMRFN	QQYHRLPLM	220 nM	6/6	0/18
IISQVDAYMSRNKNSIA	DQSTRGS	QQYDRLPLS	9.0 nM	6/6	0/18
QFDQFYRVGALNTDSIA	HAEMRVQ	QSYNRLPLM	8.5 nM	6/6	4/18
NITGMVEEIGTTMKNIA	EGEFRCM	QQYSRLPLS	35 nM	5/6	0/18
WLSMSVMLESRNVNSVA	SASTREE	QQYHRLPLS	20 nM	6/6	0/18

Source: Li et al. 2023 (doi:10.1038/s41467-023-39022-2), MIT Lincoln Laboratory and A-Alpha Bio; data file from the FLAb repository.